Reference: ChEMBL document CHEMBL1123051, “In the search for new anticancer drugs. 13. Phosphonic and phosphinic analogues of ornithine” (1985)
Active and inactive are the calls of the source. The calls are words filed in the database; no cut-off is given here.

Legend:
[1] = target: T1, Ornithine decarboxylase (Rattus norvegicus) (UniProt P09057); test: Compound was tested for its inhibition against ornithine decarboxylase from rat liver at 5 mM concentration
T1 sequence (whole entry): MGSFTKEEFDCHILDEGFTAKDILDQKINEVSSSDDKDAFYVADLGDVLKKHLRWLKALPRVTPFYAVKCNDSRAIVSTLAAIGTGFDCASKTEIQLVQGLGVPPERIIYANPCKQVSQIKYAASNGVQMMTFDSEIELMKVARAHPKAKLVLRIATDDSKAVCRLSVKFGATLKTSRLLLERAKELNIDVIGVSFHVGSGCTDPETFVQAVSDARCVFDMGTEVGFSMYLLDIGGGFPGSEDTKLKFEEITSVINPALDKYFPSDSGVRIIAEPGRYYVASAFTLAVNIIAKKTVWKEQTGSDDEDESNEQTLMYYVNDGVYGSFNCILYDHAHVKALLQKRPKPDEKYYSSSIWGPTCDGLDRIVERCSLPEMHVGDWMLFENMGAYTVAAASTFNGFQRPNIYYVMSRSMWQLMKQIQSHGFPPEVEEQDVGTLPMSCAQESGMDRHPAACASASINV

[2] = target: T1, Ornithine decarboxylase (Rattus norvegicus); test: Compound was tested for its inhibition against ornithine decarboxylase from rat liver at low concentration; NA means not active

Row | SMILES | inhibition [1] [%] | Activity [2]
1 | NCCCC(N)OP(O)O (configuration not stated) | 40 | –
2 | CC(N)(CCCN)OP(O)O (configuration not stated) | – | inactive
